According to PubChem BioAssay AID449762 (Southern Research Specialized Biocontainment Screening …, 2010):
Only a part is listed here, and it is no random draw. Records with an inconclusive call do not appear. The source made the active and inactive calls. Cut-off read from the data, not from the text of the source: inconclusive = inhibition above about 70% without an active follow-up result; inactive = below that.

Assay: M. tuberculosis growth inhibition, HTS (AID 449762);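 note: bacterial growth assessed after seven days of incubation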
Settings: M. tuberculosis H37Rv growth inhibition, 7H9 media; at 25 µM; stronger effect = higher value
In the case of `CCC(=O)N(c1ccccc1)C1(COC)CCN(CCn2nnn(CC)c2=O)CC1`, the inhibition is reported as inactive: -2.84%. With `CCC(=O)N(c1ccccc1)C1(COC)CCN(CCc2cccs2)CC1` the inhibition was inactive: 0.87%.
